Target: Recombinant human cathepsin S (CatS) (Homo sapiens, UniProt P25774)
Test: biochemical

Amino acid sequences for entries named in this document (tags omitted). Residues count along the entry.
UniProt P25774, 115-331: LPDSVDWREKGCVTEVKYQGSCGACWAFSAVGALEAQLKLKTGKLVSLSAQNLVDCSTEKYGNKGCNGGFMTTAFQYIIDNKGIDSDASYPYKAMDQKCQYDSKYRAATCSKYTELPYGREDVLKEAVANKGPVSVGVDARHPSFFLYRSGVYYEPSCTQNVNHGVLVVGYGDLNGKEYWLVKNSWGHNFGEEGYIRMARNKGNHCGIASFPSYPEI

| IC50 | Compound |
| --- | --- |
| 430 nM | CS(=O)(=O)N1CCc2c(c(-c3ccc(C(F)(F)F)c(SCCN4CCCC(F)(F)C4)c3)nn2C[C@@H](O)CN2C=NCCC2)C1 [Example 492, (2S)-1-{3-[3-{[2-(3,3-Difluoropiperidin-1-yl)ethyl]sulfanyl}-4-(trifluoromethyl)phenyl]-5-(methylsulfonyl)-4,5,6,7-tetrahydro-1H-pyrazolo[4,3-c]pyridin-1-yl}-3-(5,6-dihydropyrimidin-1(4H)-yl)propan-2-ol] |
| 3600 nM | CCCSc1cc(-c2nn(CCCN3CCOCC3)c3c2CN(S(C)(=O)=O)CC3)ccc1Cl [Example 132, 3-(4-Chloro-3-propylsulfanyl-phenyl)-5-methanesulfonyl-1-(3-morpholin-4-yl-propyl)-4,5,6,7-tetrahydro-1H-pyrazolo[4,3-c]pyridine] |
| 180 nM | CC1CCN(C[C@@H](O)Cn2nc(-c3ccc(C(F)(F)F)c(SCCN4CCC(F)CC4)c3)c3c2CCN(S(C)(=O)=O)C3)CC1 [Example 200, (2R)-1-{3-[3-{[2-(4-Fluoropiperidin-1-yl)ethyl]sulfanyl}-4-(trifluoromethyl)phenyl]-5-(methylsulfonyl)-4,5,6,7-tetrahydro-1H-pyrazolo[4,3-c]pyridin-1-yl}-3-(4-methylpiperidin-1-yl)propan-2-ol] |
| 240 nM | CS(=O)(=O)N1CCc2c(c(-c3ccc(C(F)(F)F)c(SCCN4CCOCC4)c3)nn2CC(O)CN2CCC(C(N)=O)CC2)C1 (stereo not shown) [Example 555, 1-{2-Hydroxy-3-[5-(methylsulfonyl)-3-{3-[(2-morpholin-4-ylethyl)sulfanyl]-4-(trifluoromethyl)phenyl}-4,5,6,7-tetrahydro-1H-pyrazolo[4,3-c]pyridin-1-yl]propyl}piperidine-4-carboxamide] |
| 130 nM | CS(=O)(=O)N1CCc2c(c(-c3ccc(C(F)(F)F)c(SCCN4CCC(F)(F)CC4)c3)nn2C[C@@H](O)CN2CCCCC2)C1 [Example 211, (2S)-1-{3-[3-{[2-(4,4-Difluoropiperidin-1-yl)ethyl]sulfanyl}-4-(trifluoromethyl)phenyl]-5-(methylsulfonyl)-4,5,6,7-tetrahydro-1H-pyrazolo[4,3-c]pyridin-1-yl}-3-piperidin-1-ylpropan-2-ol] |
| 1540 nM | CS(=O)(=O)N1CCc2c(c(-c3ccc(C(F)(F)F)c(SCCN4CCCCC4)c3)nn2CCCN2CCC(O)C2)C1 (stereo not shown) [Example 58, 1-(3-{5-Methanesulfonyl-3-[3-(2-piperidin-1-yl-ethylsulfanyl)-4-trifluoromethyl-phenyl]-4,5,6,7-tetrahydro-pyrazolo[4,3-c]pyridin-1-yl}-propyl)-pyrrolidin-3-ol.] |
| 20 nM | Cc1ccccc1N1CCN(CC(O)Cn2nc(-c3ccc(C(F)(F)F)c(SCCN4CCCCC4)c3)c3c2CCN(S(C)(=O)=O)C3)CC1 (stereo not shown) [Example 702, 1-[4-(2-Methylphenyl)piperazin-1-yl]-3-[5-(methylsulfonyl)-3-{3-[(2-piperidin-1-ylethyl)sulfanyl]-4-(trifluoromethyl)phenyl}-4,5,6,7-tetrahydro-1H-pyrazolo[4,3-c]pyridin-1-yl]propan-2-ol] |
| 840 nM | CS(=O)(=O)N1CCc2c(c(-c3ccc(C(F)(F)F)c(SCCN4CCOCC4)c3)nn2CC(O)CN2CCOCC2)C1 (stereo not shown) [Example 179, 1-[5-(Methylsulfonyl)-3-{3-[(2-morpholin-4-ylethyl)sulfanyl]-4-(trifluoromethyl)phenyl}-4,5,6,7-tetrahydro-1H-pyrazolo[4,3-c]pyridin-1-yl]-3-morpholin-4-ylpropan-2-ol] |
| 150 nM | CS(=O)(=O)N1CCc2c(c(-c3ccc(C(F)(F)F)c(SCCN4CCS(=O)(=O)CC4)c3)nn2CCCN2CCC(N3CCCC3=O)CC2)C1 [Example 15, 1-{1-[3-(3-{3-[2-(1,1-Dioxo-1λ^6-thiomorpholin-4-yl)-ethylsulfanyl]-4-trifluoromethyl-phenyl}-5-methanesulfonyl-4,5,6,7-tetrahydro-pyrazolo[4,3-c]pyridin-1-yl)-propyl]-piperidin-4-yl}-pyrrolidin-2-one] |
| 280 nM | C[C@H](O)C(=O)N1CCc2c(c(-c3ccc(C(F)(F)F)c(SCCN4CCC(F)CC4)c3)nn2CC(O)CN2CCCCC2)C1 (stereo partly drawn) [Example 370, (2S)-1-{3-[3-{[2-(4-Fluoropiperidin-1-yl)ethyl]sulfanyl}-4-(trifluoromethyl)phenyl]-1-(2-hydroxy-3-piperidin-1-ylpropyl)-1,4,6,7-tetrahydro-5H-pyrazolo[4,3-c]pyridin-5-yl}-1-oxopropan-2-ol] |
| 370 nM | CS(=O)(=O)N1CCc2c(c(-c3ccc(C(F)(F)F)c(SCCN4CCCC(F)C4)c3)nn2C[C@@H](O)CN2CC=CCC2)C1 (stereo partly drawn) [Example 387, (2S)-1-(3,6-Dihydropyridin-1(2H)-yl)-3-{3-[3-{[2-(3-fluoropiperidin-1-yl)ethyl]sulfanyl}-4-(trifluoromethyl)phenyl]-5-(methylsulfonyl)-4,5,6,7-tetrahydro-1H-pyrazolo[4,3-c]pyridin-1-yl}propan-2-ol] |
| 1040 nM | CC(=O)N1CCN(CCSc2cc(-c3nn(CC(O)CN4CCCCC4)c4c3CN(S(C)(=O)=O)CC4)ccc2C(F)(F)F)CC1 (stereo not shown) [Example 187, 1-{3-[3-{[2-(4-Acetylpiperazin-1-yl)ethyl]sulfanyl}-4-(trifluoromethyl)phenyl]-5-(methylsulfonyl)-4,5,6,7-tetrahydro-1H-pyrazolo[4,3-c]pyridin-1-yl}-3-piperidin-1-ylpropan-2-ol] |
| 35 nM | C[C@H](O)C(=O)NC1CCN(C[C@H](O)Cn2nc(-c3ccc(C(F)(F)F)c(SCCN4CCC5CCCCC5C4)c3)c3c2CCN(S(C)(=O)=O)C3)CC1 (stereo partly drawn) [Example 861, (2S)-2-Hydroxy-N-{1-[(2S)-2-hydroxy-3-{5-(methylsulfonyl)-3-[3-{[2-(octahydroisoquinolin-2(1H)-yl)ethyl]sulfanyl}-4-(trifluoromethyl)phenyl]-4,5,6,7-tetrahydro-1H-pyrazolo[4,3-c]pyridin-1-yl}propyl]piperidin-4-yl}propanamide] |
| 15 nM | CS(=O)(=O)N1CCc2c(c(-c3ccc(C(F)(F)F)c(SCCN4CCC(O)CC4)c3)nn2CC(O)CN2CCC(c3ccccc3)CC2)C1 (stereo not shown) [Example 706, 1-(2-{[5-{1-[2-Hydroxy-3-(4-phenylpiperidin-1-yl)propyl]-5-(methylsulfonyl)-4,5,6,7-tetrahydro-1H-pyrazolo[4,3-c]pyridin-3-yl}-2-(trifluoromethyl)phenyl]sulfanyl}ethyl)piperidin-4-ol] |
| 20 nM | COc1ccccc1C1CCN(C[C@@H](O)Cn2nc(-c3ccc(C(F)(F)F)c(SCCN4CCC(F)CC4)c3)c3c2CCN(S(C)(=O)=O)C3)CC1 [Example 841, (2R)-1-{3-[3-{[2-(4-Fluoropiperidin-1-yl)ethyl]sulfanyl}-4-(trifluoromethyl)phenyl]-5-(methylsulfonyl)-4,5,6,7-tetrahydro-1H-pyrazolo[4,3-c]pyridin-1-yl}-3-{4-[2-(methyloxy)phenyl]piperidin-1-yl}propan-2-ol] |
| 15 nM | CS(=O)(=O)N1CCc2c(c(-c3ccc(C(F)(F)F)c(SCCN4CCCC(CO)C4)c3)nn2CC(O)CN2CCC(c3ccccn3)CC2)C1 (stereo not shown) [Example 777, 1-{3-[3-({2-[3-(Hydroxymethyl)piperidin-1-yl]ethyl}sulfanyl)-4-(trifluoromethyl)phenyl]-5-(methylsulfonyl)-4,5,6,7-tetrahydro-1H-pyrazolo[4,3-c]pyridin-1-yl}-3-(4-pyridin-2-ylpiperidin-1-yl)propan-2-ol] |
| 30 nM | COc1ccccc1C1CCN(CC(O)Cn2nc(-c3ccc(C(F)(F)F)c(SCCN4CCCC4)c3)c3c2CCN(S(C)(=O)=O)C3)CC1 (stereo not shown) [Example 703, 1-{4-[2-(Methyloxy)phenyl]piperidin-1-yl}-3-[5-(methylsulfonyl)-3-{3-[(2-pyrrolidin-1-ylethyl)sulfanyl]-4-(trifluoromethyl)phenyl}-4,5,6,7-tetrahydro-1H-pyrazolo[4,3-c]pyridin-1-yl]propan-2-ol] |
| 580 nM | CS(=O)(=O)N1CCc2c(c(-c3ccc(C(F)(F)F)c(SCCNC(=O)C4CCNC4)c3)nn2CC(O)CN2CCC(N3CCCC3=O)CC2)C1 (stereo not shown) [Example 126, Pyrrolidine-3-carboxylic acid {2-[5-(1-{2-hydroxy-3-[4-(2-oxo-pyrrolidin-1-yl)-piperidin-1-yl]-propyl}-5-methanesulfonyl-4,5,6,7-tetrahydro-1H-pyrazolo[4,3-c]pyridin-3-yl)-2-trifluoromethyl-phenylsulfanyl]-ethyl}-amide] |
| 1340 nM | CC(=O)N1CCC[C@H]1C(=O)N1CCc2c(c(-c3ccc(C(F)(F)F)c(SCCN4CCC(F)CC4)c3)nn2CC(O)CN2CCCCC2)C1 (stereo partly drawn) [Example 672, 1-{5-(1-Acetyl-L-prolyl)-3-[3-{[2-(4-fluoropiperidin-1-yl)ethyl]sulfanyl}-4-(trifluoromethyl)phenyl]-4,5,6,7-tetrahydro-1H-pyrazolo[4,3-c]pyridin-1-yl}-3-piperidin-1-ylpropan-2-ol] |
| 570 nM | CS(=O)(=O)N1CCc2c(c(-c3ccc(C(F)(F)F)c(SCCN4CCOCC4)c3)nn2CC(O)CN2CCc3n[nH]cc3C2)C1 (stereo not shown) [Example 527, 1-[5-(Methylsulfonyl)-3-{3-[(2-morpholin-4-ylethyl)sulfanyl]-4-(trifluoromethyl)phenyl}-4,5,6,7-tetrahydro-1H-pyrazolo[4,3-c]pyridin-1-yl]-3-(2,4,6,7-tetrahydro-5H-pyrazolo[4,3-c]pyridin-5-yl)propan-2-ol] |
| 100 nM | CC(=O)N1CCc2c(c(-c3ccc(C(F)(F)F)c(SCC(=O)N4CCCC4)c3)nn2CC(O)CN2CCC(C(C)(C)C)CC2)C1 (stereo not shown) [Example 278, 1-(5-Acetyl-3-{3-[(2-oxo-2-pyrrolidin-1-ylethyl)sulfanyl]-4-(trifluoromethyl)phenyl}-4,5,6,7-tetrahydro-1H-pyrazolo[4,3-c]pyridin-1-yl)-3-[4-(1,1-dimethylethyl)piperidin-1-yl]propan-2-ol] |

| Compound | IC50 |
| --- | --- |
| CC(C)(C)OC(=O)NCCSc1cc(-c2nn(CC(O)CN3CCC(N4CCCC4=O)CC3)c3c2CN(S(C)(=O)=O)CC3)ccc1C(F)(F)F (stereo not shown) [Example 61, {2-[5-(1-{2-Hydroxy-3-[4-(2-oxo-pyrrolidin-1-yl)-piperidin-1-yl]-propyl}-5-methanesulfonyl-4,5,6,7-tetrahydro-1H-pyrazolo[4,3-c]pyridin-3-yl)-2-trifluoromethyl-phenylsulfanyl]-ethyl}-carbamic acid tert-butyl ester] | 250 nM |
